Literature values, collected in US11266707B2, “Nutraceuticals for the prevention, inhibition, and treatment of SARS-CoV-2 and associated COVID-19” (priority 2020, dated 2022).

Legend:
[1] = 50 and 100 mg/kg/day, compared with the MD group; cited from earlier work
LPS-induced ARDS = details: 10 mg/kg ip; cited from earlier work
[2] = tested on: lipopolysaccharide-activated macrophages; details: 5 and 10 microM for 6-24 hr, versus macrophages without EGCG; cited from earlier work

Substance: Epigallocatechin-3-Gallate [EGCG]
- disease activity index (DAI) [1]: decreased
- spleen index (SI) [1]: decreased
- wet-to-dry weight ratios (LPS-induced ARDS): reduced
- iNOS activity in soluble extracts [2]: significantly lower
